The source of these data is patent US9796764B2, “Cyclotide genes in the fabaceae plant family” (The University of Queensland, priority 2011, dated 2017).

A short description of this data set: Haemolytic activity assay. The class given is cell-based. As to conditions: washed human red blood cells; % of maximum lysis (1% Triton X-100); read-out: haemolytic dose necessary to lyse 50% of the RBCs (HD50). The protocol:
Serially diluted peptide solutions were incubated with washed human red blood cells. Following incubation, the supernatant was transferred before the UV absorbance was measured. The amount of haemolysis was calculated as the percentage of maximum lysis (1% Triton X-100 control) after adjusting for minimum lysis (PBS control). Synthetic melittin was used for comparison. The haemolytic dose necessary to lyse 50% of the RBCs (HD50) was calculated using the regression constant from the linear portion of the haemolytic titration curve (Graphpad Prism software).

On to `CC[C@H](C)[C@H](NC(=O)CN)C(=O)NCC(=O)N[C@@H](C)C(=O)N[C@H](C(=O)N[C@@H](CC(C)C)C(=O)N[C@@H](CCCCN)C(=O)N[C@H](C(=O)N[C@@H](CC(C)C)C(=O)N[C@H](C(=O)N[C@H](C(=O)NCC(=O)N[C@@H](CC(C)C)C(=O)N1CCC[C@H]1C(=O)N[C@@H](C)C(=O)N[C@@H](CC(C)C)C(=O)N[C@H](C(=O)N[C@@H](CO)C(=O)N[C@@H](Cc1c[nH]c2ccccc12)C(=O)N[C@H](C(=O)N[C@@H](CCCCN)C(=O)N[C@@H](CCCNC(=N)N)C(=O)N[C@@H](CCCCN)C(=O)N[C@@H](CCCNC(=N)N)C(=O)N[C@@H](CCC(N)=O)C(=O)N[C@@H](CCC(N)=O)C(N)=O)[C@@H](C)CC)[C@@H](C)CC)[C@@H](C)O)[C@@H](C)O)C(C)C)C(C)C` [melittin, reference compound], for which the HC50 came to 1400 nM.
